Laboratory results reported in patent US8518443B2, “Opioid agonist formulations with releasable and sequestered antagonist” (Purdue Pharma, L.P., priority 2001, dated 2013).

Assay type: in vivo
Details: in comparison to a 15 mg dose of hydrocodone

## CN1CC[C@]23c4c5ccc(O)c4O[C@H]2C(=O)CC[C@H]3[C@H]1C5 [Hydromorphone]
  Equianalgesic dose, Calculated Dose: 3.375 mg
